Laboratory results from patent publication US6953800B2, “Use of selective antagonists of the α1B-adrenergic receptor for improvement of sexual dysfunction” (Recordati S.A. Chemical, priority 1999, dated 2005).

Tested on: anaesthetised dogs
Experiment: Intracavernous and blood pressure recording in dogs

`COc1cc2nc(N3CCN(C(=O)c4ccco4)CC3)nc(N)c2cc1OC` [Prazosin] was tested, and the “DT (duration of tumescence)” value (30 μg/kg intracavernous) was 1.1 ± 1.1 min, the “DT (duration of tumescence)” value (100 μg/kg intracavernous) was 1.4 ± 1.1 min and the “DT (duration of tumescence)” value (300 μg/kg intracavernous) was 3.0 ± 1.5 min. The “DT (duration of tumescence)” value (1000 μg/kg intracavernous) was 17.7 ± 14.1 min.
